# scFv variants of Ab-14 (light chain) against a SARS-CoV-2 spike peptide

Antigen: PDVDLGDISGINAS, a 14-residue peptide of the SARS-CoV-2 spike HR2 region.

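The parent was found by panning a naive human phage display library on the peptide. In library AAYL50, one, two or three CDR residues were substituted; doubles and triples were drawn at random. AlphaSeq pools MATa yeast showing the antibodies with MATalpha yeast showing the peptide. Binding brings cells together so that they mate, and sequencing counts the barcode pairs among the diploids. The ratio of observed to expected reads was calibrated, replicate by replicate, on BCL2-family standards whose Kd was known from biolayer interferometry. The assay was run in three technical replicates.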

Ab-14 is the parent antibody, in scFv form: VH, then the linker GGGGSGGGGSGGGGS, then VL. The heavy chain is unchanged in all variants.
VH: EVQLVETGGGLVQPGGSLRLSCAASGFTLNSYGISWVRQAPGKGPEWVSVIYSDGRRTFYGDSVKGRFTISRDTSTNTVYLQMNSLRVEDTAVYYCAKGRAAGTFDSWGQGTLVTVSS
VL: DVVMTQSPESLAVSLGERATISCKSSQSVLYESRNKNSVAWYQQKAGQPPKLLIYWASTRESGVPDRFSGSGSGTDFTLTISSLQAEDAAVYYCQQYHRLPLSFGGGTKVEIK

Substitutions are numbered in sequence along the VL above, starting at 1 (not Kabat). The read-out is the apparent dissociation constant on a log10 scale (nM): the lower, the stronger. Where no diploid with the target was found in that replicate, the entry reads "ND": below detection, most likely a poor binder, though not proof of it. In this assay the parent's reference entry averaged 0.65; its copy inside this library read 1.68.

changes	replicates, log10 nM	control signals
E32I/A57Q/T59Q	3.71 / ND / ND	0 of 9
R60Y/Y97A/S103C	ND / ND / ND	0 of 9
S33M/S38R/P101W	ND / ND / ND	0 of 9
S58R/T59H/S62P	2.27 / 2.12 / 2.44	4 of 9 (4.62)
Q27G/Y31K/S103A	1.94 / 2.66 / 2.28	0 of 9
S58Y/P101D	ND / ND / ND	1 of 9 (3.32)
S25M/L30W/Q95H	5.58 / ND / ND	5 of 9 (3.57)
N35I/R60L/E61W	ND / ND / ND	0 of 9
S26H/S33R/Y97E	ND / ND / ND	0 of 9
Y31D/V39F/R99I	2.17 / 2.55 / 2.32	2 of 9 (3.43)
V29K/N35T/Q95R	ND / 4.01 / ND	1 of 9 (4.64)
S33I/A40P/S58K	4.59 / ND / 4.64	1 of 9 (4.33)
S25D/S58Q/H98K	2.25 / 2.48 / 2.24	3 of 9 (3.87)
S26P/Y31P/N35D	1.01 / 1.19 / 1.23	1 of 9 (3.64)
S58W/Q96W/L100V	5.18 / ND / ND	0 of 9
L30Y/A57L/P101W	ND / ND / ND	3 of 9 (3.65)
L30V/W56I/T59Q	ND / ND / ND	3 of 9 (4.30)
L30V/E61N/H98E	1.00 / 1.23 / 1.38	1 of 9 (4.31)
K36Q/E61R/Y97Q	ND / ND / ND	3 of 9 (4.19)
W56E/S62N/H98V	0.05 / 0.29 / 0.09	4 of 9 (4.14)
S25P/K36W/R60V	ND / ND / ND	0 of 9
S25I/K36V/Y97V	-0.07 / 0.36 / 0.09	1 of 9 (3.52)
S58N/Q96R/R99E	0.54 / 0.56 / 0.50	0 of 9
E32Y/T59G	ND / ND / 5.98	6 of 9 (4.45)
S26N/N35E/L100G	2.90 / 2.50 / 2.68	5 of 9 (4.38)
R34P/N35E/P101H	ND / 4.32 / ND	0 of 9
S28H/Y97E/P101M	1.12 / 1.62 / 1.36	3 of 9 (3.69)
K24Y/A57T/H98E	1.52 / 1.61 / 1.73	1 of 9 (5.16)
Q27C/S28Q/L102N	ND / 2.86 / ND	4 of 9 (3.73)
S26R/R60A/R99C	3.58 / ND / ND	2 of 9 (3.59)
N35V/R60C/R99F	ND / ND / 3.69	1 of 9 (3.52)
V39P/R60F/L100M	5.40 / ND / ND	1 of 9 (4.54)
S26F/K36D/P101D	ND / ND / ND	0 of 9
R34W/W56S/Y97Q	ND / ND / 5.00	2 of 9 (4.37)
E32T/N35F/R99I	2.95 / 2.49 / 2.67	3 of 9 (4.54)
L30W/N37M/E61A	ND / ND / ND	0 of 9
L30M/Y31M/N37Q	1.23 / 1.23 / 1.51	0 of 9
Q95N	2.59 / 2.02 / 2.61	3 of 9 (3.98)
K36A/R60H/Q95H	3.66 / 3.47 / ND	1 of 9 (3.59)
R34W/Q95E	7.08 / 4.38 / 4.94	6 of 9 (5.36)
N35E/K36P/L102W	ND / ND / ND	1 of 9 (4.73)
N37Q/T59P/R60L	ND / 3.05 / ND	3 of 9 (4.24)
Q27H/V39T/T59I	ND / ND / ND	1 of 9 (2.30)
S28R/W56T/S103L	ND / ND / ND	0 of 9
S38N/E61W/L100C	ND / ND / ND	0 of 9
S25H/R60C/L102F	ND / ND / ND	2 of 9 (4.35)
R34M/S38E/L100W	3.97 / ND / 2.43	1 of 9 (3.69)
R99M	1.11 / 1.12 / 0.99	0 of 9
S28P/N35F/R60W	ND / ND / ND	0 of 9

For reference, 7 entries of the list once more:

changes	replicates, log10 nM	control signals
L30V/E61N/H98E	1.00 / 1.23 / 1.38	1 of 9 (4.31)
N35V/R60C/R99F	ND / ND / 3.69	1 of 9 (3.52)
E32T/N35F/R99I	2.95 / 2.49 / 2.67	3 of 9 (4.54)
S33I/A40P/S58K	4.59 / ND / 4.64	1 of 9 (4.33)
E32Y/T59G	ND / ND / 5.98	6 of 9 (4.45)
V29K/N35T/Q95R	ND / 4.01 / ND	1 of 9 (4.64)
R99M	1.11 / 1.12 / 0.99	0 of 9

Background: pairings of library AAYL50 with three empty control strains gave a value in 18% of cases (median 4.19, 5th percentile 2.99). Values in that range, when seen in few replicates, are hard to tell from nonspecific mating. For each scFv, signals with the empty controls are counted beside the result, with their mean in brackets.

The measurements come from Engelhart et al. 2022 (doi:10.1038/s41597-022-01779-4) through the FLAb antibody collection.